Reference: ChEMBL document CHEMBL5505991, “Novel sulfonamide-indolinone hybrids targeting mitochondrial respiration of breast cancer cells” (Eur J Med Chem, 2024)

Amino acid sequences for entries named in this document (tags omitted). A change or cut given only in a name is not applied to a line headed by its entry.
UniProt P23458: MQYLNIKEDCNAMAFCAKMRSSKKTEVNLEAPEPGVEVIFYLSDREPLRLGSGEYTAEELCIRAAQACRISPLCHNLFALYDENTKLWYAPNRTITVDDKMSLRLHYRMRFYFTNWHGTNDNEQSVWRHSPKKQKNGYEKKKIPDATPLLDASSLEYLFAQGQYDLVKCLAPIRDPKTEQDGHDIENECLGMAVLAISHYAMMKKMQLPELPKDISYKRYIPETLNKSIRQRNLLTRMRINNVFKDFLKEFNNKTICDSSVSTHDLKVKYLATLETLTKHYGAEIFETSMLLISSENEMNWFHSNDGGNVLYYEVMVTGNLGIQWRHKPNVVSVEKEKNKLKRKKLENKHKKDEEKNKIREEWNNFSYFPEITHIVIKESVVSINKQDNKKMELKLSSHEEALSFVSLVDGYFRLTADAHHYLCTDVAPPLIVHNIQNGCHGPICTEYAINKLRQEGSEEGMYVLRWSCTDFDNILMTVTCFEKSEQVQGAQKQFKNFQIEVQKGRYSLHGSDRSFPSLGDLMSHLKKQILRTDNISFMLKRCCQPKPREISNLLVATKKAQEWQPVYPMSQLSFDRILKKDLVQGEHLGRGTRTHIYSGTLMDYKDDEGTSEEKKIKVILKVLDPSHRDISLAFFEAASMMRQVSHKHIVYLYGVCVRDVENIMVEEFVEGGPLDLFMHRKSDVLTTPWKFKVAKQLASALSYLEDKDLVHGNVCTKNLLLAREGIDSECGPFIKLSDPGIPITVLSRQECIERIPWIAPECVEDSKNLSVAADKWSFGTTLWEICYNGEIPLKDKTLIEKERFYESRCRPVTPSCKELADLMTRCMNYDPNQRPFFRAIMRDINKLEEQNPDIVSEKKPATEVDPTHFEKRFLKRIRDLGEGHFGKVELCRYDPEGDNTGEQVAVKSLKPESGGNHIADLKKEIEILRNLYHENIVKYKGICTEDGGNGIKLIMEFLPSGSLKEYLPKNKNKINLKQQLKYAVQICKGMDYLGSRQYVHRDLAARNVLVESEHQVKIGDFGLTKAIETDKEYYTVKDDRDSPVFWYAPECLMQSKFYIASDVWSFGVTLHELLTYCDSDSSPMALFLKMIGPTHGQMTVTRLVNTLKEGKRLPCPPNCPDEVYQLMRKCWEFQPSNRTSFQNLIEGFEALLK
UniProt P08069, whole entry, looked up: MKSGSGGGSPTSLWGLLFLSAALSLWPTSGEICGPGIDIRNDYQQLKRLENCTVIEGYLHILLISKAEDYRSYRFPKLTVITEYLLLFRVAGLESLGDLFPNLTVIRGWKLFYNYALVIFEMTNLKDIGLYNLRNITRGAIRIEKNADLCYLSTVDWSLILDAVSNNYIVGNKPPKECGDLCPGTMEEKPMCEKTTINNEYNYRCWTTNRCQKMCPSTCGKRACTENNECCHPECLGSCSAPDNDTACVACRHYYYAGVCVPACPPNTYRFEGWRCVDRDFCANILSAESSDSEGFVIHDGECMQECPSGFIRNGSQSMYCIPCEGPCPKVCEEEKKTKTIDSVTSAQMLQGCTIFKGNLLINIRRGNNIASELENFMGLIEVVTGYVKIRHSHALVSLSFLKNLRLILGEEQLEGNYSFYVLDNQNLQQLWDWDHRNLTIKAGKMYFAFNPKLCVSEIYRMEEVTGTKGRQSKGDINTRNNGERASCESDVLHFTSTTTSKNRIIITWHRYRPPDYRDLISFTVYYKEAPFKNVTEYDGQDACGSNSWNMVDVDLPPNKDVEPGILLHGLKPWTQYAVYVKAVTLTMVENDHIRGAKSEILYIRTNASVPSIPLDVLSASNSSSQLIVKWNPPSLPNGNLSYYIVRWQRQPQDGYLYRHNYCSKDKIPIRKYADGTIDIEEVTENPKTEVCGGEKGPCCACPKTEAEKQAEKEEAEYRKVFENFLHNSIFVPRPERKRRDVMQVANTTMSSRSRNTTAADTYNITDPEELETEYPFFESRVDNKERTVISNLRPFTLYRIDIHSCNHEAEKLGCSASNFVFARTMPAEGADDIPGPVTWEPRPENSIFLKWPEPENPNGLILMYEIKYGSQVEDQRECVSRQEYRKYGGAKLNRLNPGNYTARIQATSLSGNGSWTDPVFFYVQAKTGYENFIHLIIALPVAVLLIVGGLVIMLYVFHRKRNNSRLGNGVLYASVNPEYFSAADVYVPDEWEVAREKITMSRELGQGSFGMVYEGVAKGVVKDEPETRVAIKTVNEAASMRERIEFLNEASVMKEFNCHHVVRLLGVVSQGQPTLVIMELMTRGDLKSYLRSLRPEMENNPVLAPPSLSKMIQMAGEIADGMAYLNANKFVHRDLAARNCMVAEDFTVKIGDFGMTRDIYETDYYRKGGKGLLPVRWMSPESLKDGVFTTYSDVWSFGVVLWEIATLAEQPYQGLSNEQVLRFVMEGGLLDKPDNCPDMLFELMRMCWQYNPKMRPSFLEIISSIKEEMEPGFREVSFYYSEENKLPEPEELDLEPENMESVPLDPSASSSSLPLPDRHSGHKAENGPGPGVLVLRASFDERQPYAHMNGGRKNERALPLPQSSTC
UniProt P08581: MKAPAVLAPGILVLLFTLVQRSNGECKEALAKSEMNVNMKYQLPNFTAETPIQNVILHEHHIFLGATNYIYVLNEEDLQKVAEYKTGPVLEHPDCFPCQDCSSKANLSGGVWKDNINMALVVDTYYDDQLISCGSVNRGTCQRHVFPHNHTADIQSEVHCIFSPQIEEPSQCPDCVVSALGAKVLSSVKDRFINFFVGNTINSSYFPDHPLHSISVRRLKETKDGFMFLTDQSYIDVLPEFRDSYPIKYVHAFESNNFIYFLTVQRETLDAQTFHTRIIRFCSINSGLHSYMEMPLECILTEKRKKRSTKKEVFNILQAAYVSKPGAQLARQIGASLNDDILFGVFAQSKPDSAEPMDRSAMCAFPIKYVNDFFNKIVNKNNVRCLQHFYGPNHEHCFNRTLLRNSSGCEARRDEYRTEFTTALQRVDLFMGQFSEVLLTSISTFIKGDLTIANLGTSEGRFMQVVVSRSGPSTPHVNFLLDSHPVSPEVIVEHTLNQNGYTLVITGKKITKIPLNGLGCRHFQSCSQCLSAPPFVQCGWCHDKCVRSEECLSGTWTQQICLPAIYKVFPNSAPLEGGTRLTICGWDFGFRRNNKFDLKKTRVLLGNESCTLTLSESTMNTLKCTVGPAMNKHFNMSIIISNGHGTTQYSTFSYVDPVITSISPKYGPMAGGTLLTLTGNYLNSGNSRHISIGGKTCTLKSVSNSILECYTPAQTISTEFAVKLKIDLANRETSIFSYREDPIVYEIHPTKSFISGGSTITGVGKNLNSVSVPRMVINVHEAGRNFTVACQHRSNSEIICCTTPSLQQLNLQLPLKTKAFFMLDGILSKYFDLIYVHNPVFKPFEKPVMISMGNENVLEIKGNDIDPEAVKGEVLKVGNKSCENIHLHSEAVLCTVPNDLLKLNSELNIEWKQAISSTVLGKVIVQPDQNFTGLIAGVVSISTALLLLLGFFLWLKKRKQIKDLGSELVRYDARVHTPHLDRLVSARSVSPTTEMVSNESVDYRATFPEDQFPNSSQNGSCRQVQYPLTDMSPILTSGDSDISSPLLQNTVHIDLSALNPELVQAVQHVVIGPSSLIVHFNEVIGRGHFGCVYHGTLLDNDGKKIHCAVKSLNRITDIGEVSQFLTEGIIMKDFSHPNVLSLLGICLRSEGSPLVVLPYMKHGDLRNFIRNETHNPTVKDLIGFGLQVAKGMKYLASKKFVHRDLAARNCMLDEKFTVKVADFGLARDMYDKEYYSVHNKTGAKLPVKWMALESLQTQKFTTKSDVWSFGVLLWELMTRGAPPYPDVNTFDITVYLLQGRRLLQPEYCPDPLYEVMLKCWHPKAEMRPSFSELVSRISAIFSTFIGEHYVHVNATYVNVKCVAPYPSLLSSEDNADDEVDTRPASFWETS
UniProt Q13153, whole entry: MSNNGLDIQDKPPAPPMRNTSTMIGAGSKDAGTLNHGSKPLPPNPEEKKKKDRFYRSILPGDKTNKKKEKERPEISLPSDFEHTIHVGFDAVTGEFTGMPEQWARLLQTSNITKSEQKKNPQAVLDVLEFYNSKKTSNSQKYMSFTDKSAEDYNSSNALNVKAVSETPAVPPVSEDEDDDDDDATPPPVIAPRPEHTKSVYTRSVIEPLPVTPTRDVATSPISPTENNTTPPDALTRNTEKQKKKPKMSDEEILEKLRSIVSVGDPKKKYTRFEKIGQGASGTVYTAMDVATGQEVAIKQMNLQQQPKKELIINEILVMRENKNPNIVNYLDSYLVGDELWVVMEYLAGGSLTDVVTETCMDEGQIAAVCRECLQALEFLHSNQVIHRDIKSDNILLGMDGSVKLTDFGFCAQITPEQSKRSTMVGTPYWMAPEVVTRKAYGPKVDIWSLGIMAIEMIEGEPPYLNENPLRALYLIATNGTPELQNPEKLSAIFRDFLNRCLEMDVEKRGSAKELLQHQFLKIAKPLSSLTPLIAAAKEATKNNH
UniProt P07948: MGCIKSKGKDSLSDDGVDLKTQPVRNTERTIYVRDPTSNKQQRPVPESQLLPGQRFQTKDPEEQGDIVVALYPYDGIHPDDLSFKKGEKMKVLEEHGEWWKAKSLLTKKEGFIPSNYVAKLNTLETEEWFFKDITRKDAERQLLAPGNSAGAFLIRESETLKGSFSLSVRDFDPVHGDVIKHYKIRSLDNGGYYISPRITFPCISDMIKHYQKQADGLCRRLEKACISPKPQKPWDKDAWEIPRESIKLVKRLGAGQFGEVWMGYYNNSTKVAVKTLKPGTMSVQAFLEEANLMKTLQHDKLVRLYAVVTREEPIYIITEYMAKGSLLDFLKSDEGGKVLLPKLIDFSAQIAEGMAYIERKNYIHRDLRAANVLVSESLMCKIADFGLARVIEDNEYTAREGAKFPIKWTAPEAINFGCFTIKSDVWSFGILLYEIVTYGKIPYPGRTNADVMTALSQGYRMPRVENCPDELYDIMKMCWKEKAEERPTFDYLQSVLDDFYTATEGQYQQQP
UniProt P11802: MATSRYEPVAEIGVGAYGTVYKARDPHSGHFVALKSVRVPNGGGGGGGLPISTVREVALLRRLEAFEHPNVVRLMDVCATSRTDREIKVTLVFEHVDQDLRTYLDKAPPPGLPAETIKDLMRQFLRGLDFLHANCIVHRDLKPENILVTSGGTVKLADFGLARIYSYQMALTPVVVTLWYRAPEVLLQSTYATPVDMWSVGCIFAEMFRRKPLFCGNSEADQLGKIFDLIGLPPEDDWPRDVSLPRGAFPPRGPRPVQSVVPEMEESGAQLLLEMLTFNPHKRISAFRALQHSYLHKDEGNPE
UniProt P09619, whole entry: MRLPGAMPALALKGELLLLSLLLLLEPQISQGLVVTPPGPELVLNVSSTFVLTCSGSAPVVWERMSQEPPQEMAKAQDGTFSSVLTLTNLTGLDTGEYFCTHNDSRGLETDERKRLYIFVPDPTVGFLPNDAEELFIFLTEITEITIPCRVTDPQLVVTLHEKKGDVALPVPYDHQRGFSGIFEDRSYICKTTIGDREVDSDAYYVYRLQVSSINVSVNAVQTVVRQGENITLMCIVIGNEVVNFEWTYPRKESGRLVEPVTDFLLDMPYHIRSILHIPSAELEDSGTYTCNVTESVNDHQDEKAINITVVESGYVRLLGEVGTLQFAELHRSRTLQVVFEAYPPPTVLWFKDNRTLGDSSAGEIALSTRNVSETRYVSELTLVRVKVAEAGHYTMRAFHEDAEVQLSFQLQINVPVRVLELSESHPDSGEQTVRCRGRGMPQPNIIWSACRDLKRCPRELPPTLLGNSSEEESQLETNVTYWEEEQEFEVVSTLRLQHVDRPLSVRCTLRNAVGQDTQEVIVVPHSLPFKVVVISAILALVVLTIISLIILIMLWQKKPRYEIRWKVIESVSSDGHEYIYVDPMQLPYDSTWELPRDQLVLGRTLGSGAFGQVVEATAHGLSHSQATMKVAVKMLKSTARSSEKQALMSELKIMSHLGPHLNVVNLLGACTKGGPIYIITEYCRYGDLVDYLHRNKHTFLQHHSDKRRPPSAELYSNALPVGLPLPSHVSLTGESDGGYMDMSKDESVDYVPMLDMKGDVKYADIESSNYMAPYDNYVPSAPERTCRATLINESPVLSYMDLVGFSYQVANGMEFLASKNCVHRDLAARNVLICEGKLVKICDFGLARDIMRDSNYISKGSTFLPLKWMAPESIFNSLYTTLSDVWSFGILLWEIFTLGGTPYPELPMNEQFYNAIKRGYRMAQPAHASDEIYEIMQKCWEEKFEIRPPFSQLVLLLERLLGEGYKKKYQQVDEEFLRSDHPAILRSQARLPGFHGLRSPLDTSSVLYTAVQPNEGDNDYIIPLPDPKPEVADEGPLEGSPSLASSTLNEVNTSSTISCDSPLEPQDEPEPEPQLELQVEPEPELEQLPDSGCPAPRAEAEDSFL

What was measured:
[1] = target: Interleukin-1 receptor-associated kinase 4 (Homo sapiens) (UniProt Q9NWZ3); experiment: Inhibition of IRAK4 (unknown origin) at 1 uM by Z-LYTE assay relative to control
[2] = target: Tyrosine-protein kinase JAK1 (Homo sapiens) (UniProt P23458); experiment: Inhibition of JAK1 (unknown origin) at 1 uM by Z-LYTE assay relative to control
[3] = target: Proto-oncogene tyrosine-protein kinase Src (Homo sapiens) (UniProt P12931); experiment: Inhibition of SRC (unknown origin) at 1 uM by Z-LYTE assay relative to control
[4] = target: Insulin-like growth factor 1 receptor (Homo sapiens) (UniProt P08069); experiment: Inhibition of IGF1R (unknown origin) at 1 uM by Z-LYTE assay relative to control
[5] = target: Hepatocyte growth factor receptor (Homo sapiens) (UniProt P08581); experiment: Inhibition of MET (unknown origin) at 1 uM by Z-LYTE assay relative to control
[6] = target: Serine/threonine-protein kinase PAK 1 (Homo sapiens) (UniProt Q13153); experiment: Inhibition of PAK1 (unknown origin) at 1 uM by Z-LYTE assay relative to control
[7] = target: Tyrosine-protein kinase Lyn (Homo sapiens) (UniProt P07948); experiment: Inhibition of LYNa (unknown origin) at 1 uM by Z-LYTE assay relative to control
[8] = target: Serine/threonine-protein kinase mTOR (Homo sapiens) (UniProt P42345); experiment: Inhibition of mTOR (unknown origin) at 1 uM by Z-LYTE assay relative to control
[9] = target: Platelet-derived growth factor receptor alpha (Homo sapiens) (UniProt P16234); experiment: Inhibition of PDGFRalpha (unknown origin) at 1 uM by Adapta assay relative to control
[10] = target: Cyclin-dependent kinase 4/cyclin D1 (Homo sapiens) (UniProt P11802+P24385); experiment: Inhibition of CDK4/Cyclin D1 (unknown origin) at 1 uM by adapta relative to control; format: protein-complex assay
[11] = target: T1, Dual specificity protein kinase TTK (Homo sapiens) (UniProt P33981); experiment: Inhibition of TTK (unknown origin) at 1 uM by Lanthascreen assay relative to control
T1 sequence (whole entry): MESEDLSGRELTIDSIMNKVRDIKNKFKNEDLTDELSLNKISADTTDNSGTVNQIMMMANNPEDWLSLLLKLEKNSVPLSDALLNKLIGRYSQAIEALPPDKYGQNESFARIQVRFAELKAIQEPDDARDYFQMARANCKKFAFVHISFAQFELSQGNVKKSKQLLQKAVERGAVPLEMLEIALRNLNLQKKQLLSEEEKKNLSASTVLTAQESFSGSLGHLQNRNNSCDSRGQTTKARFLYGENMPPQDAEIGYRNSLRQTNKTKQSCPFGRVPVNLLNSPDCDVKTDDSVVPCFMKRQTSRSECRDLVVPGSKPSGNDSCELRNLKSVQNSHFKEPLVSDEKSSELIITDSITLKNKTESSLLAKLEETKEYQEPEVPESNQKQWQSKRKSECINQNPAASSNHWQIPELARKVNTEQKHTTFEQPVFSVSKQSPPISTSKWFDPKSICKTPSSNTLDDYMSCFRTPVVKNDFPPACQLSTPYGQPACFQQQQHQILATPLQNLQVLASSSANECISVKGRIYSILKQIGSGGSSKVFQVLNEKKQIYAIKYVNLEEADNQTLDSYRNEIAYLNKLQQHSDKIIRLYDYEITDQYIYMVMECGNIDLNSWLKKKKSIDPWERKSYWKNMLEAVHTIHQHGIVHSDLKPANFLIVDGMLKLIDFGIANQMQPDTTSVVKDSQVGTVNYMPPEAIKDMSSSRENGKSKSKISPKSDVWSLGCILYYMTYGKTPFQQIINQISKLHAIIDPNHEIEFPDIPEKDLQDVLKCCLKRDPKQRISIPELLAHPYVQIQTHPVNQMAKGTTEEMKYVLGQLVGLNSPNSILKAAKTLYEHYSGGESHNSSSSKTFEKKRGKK

[12] = target: T2, Tyrosine-protein kinase receptor UFO (Homo sapiens) (UniProt P30530); experiment: Inhibition of AXL (unknown origin) at 1 uM by Z-LYTE assay relative to control
T2 sequence (whole entry): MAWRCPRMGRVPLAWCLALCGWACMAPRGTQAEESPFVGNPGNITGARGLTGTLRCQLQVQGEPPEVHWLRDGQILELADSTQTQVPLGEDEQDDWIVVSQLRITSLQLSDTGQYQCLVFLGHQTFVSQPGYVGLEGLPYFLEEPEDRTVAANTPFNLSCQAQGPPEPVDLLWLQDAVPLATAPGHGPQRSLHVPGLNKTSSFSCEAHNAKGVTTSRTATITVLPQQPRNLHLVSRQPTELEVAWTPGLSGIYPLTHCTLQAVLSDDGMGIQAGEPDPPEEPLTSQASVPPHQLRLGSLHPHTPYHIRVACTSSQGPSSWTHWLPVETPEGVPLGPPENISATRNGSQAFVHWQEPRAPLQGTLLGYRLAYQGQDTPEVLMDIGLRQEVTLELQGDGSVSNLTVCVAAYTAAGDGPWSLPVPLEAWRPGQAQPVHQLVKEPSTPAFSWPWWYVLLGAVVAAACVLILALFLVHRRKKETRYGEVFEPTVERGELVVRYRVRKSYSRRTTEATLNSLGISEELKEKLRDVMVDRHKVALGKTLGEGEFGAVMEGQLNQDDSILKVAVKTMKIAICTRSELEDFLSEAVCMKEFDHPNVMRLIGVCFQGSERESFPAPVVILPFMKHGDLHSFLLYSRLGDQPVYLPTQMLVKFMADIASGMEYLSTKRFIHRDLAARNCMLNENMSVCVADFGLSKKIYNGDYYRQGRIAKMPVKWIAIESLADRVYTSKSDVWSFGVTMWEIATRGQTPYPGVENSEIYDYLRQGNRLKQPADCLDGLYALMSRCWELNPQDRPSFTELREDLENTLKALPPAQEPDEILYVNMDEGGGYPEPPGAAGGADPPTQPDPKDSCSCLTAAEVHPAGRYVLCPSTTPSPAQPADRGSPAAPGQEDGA

[13] = target: Vascular endothelial growth factor receptor 2 (Homo sapiens) (UniProt P35968); experiment: Inhibition of VEGFR2 (unknown origin) at 1 uM by Z-LYTE assay relative to control
[14] = target: Fibroblast growth factor receptor 1 (Homo sapiens) (UniProt P11362); experiment: Inhibition of FGFR1 (unknown origin) at 1 uM by Z-LYTE assay relative to control
[15] = target: Platelet-derived growth factor receptor beta (Homo sapiens) (UniProt P09619); experiment: Inhibition of PDGFRbeta (unknown origin) at 1 uM by Z-LYTE assay relative to control

`O=C1Nc2cc(-c3ccc(NS(=O)(=O)c4ccc(F)c(Cl)c4)cc3)ccc2/C1=C/c1ccc[nH]1` gave an inhibition [1] of 0%, an inhibition [2] of 1% and an inhibition [3] of 8%. It also gave an inhibition [4] of -1%, an inhibition [5] of 11% and an inhibition [6] of 20%. For the same molecule, the inhibition [7] was 10%, the inhibition [8] was -1% and the inhibition [9] was -3%. For the same molecule, the inhibition [10] was -6%, the inhibition [11] was 13% and the inhibition [12] was 3%. The inhibition [13] was 21%, the inhibition [14] was 22% and the inhibition [15] was 49%.
